The test concerns human platelets. As to conditions: whole human blood, 10 μM ADP; Example 44 tested from 0.31 to 5 μg/ml.

With `CC(=O)Oc1ccccc1C(=O)O` [aspirin, reference compound], the “inhibition of platelet dense granule ATP release reaction” value is “able to completely inhibit the process in vitro, albeit at higher concentrations”.

The values above are taken from patent US20080009485A1, “Methods for the use of inhibitors of cytosolic phospholipase A2 in the treatment of thrombosis” (Wyeth, priority 2006, published 2008).
